Entries after “also recorded” stand apart in the source; their conditions may differ.

This data set has as its system anesthetized dogs. Briefly: In vivo electrophysiology (atrial ERP, QTc) in anesthetized dogs. On the set-up: species or system dog. Particulars: for atrial ERP, in words: BCL 300, 250, 200 ms, 4-hour observation; for rate dependence of ERP prolongation, in words: three hours post administration.
Setting [1] is: 5 mg/kg intraduodenal, BCL 200 ms, 1 h post-treatment.
The mark [2] stands for this setting: 5 mg/kg intraduodenal, BCL 300 ms, pre-treatment (baseline).

With `COc1ccc(-c2cc(=O)c3c(O)cc(O)cc3o2)cc1` [Acacetin, 5,7-dihydroxy-4′-methoxyflavone], where the note is “5 mg/kg intraduodenal”, the “QTc interval in anesthetized dogs, in words” value (from here on “QTc interval”) was “without prolonging”; the “atrial ERP, in words” value was “significantly prolonged”; the “rate dependence of ERP prolongation, in words” value is on record as “no such reverse rate-dependent effect”. Besides, the “QTc interval” value (5 mg/kg intraduodenal, listed as acacetin) is “did not prolong”. In addition, where the note is “one animal, 2 h after 5 mg/kg”, the “S2-induced sustained AF during right atrial ERP measurement at 200 ms BCL, in words” value is recorded as “but not after two hours of acacetin administration; also recorded: no longer triggered”.
With `CC(C)NCC(O)c1ccc(NS(C)(=O)=O)cc1` (centres unmarked) [Sotalol, sotalol], under “5 mg/kg intraduodenal”, the “QTc interval” value is given as “increased; also recorded: prolonged”; the “atrial ERP, in words” value is listed as “significantly prolonged”; the “rate dependence of ERP prolongation, in words” value was “reverse rate-dependent prolongation; also recorded: ‘reverse-rate dependent’ prolongation”. Further, under setting [1], the “left atrial ERP (ms), BCL 200 ms” value is 99.4 ± 3.2 ms and the “right atrial ERP (ms), BCL 200 ms” value is recorded as 99.4 ± 3.2 ms. Under “5 mg/kg intraduodenal, BCL 200 ms, 2 h post-treatment”, the “right atrial ERP (ms), BCL 200 ms” value came to 105.1 ± 5.1 ms. Under setting [2], the “left atrial ERP (ms), BCL 300” value was 99.4 ± 3.7 ms and the “right atrial ERP (ms), BCL 300” value is 100.3 ± 9.4 ms. Moreover, the “QTc interval” value (5 mg/kg intraduodenal, listed as sotalol) is recorded as “prolonged”.

These data come from US7816400B2 (The University of Hong Kong, priority 2007, dated 2010).
